Measured values taken from patent US20240376143A1, “SELECTION INHIBITION OF DNA POLYMERASE BETA BY A COVALENT INHIBITOR” (The Johns Hopkins University, priority 2021, published 2024).

Experiments:
DNA polymerase β (Pol β) = DNA polymerase β (Pol β) (Homo sapiens, UniProt P06746); settings: 20 min preincubation, 15 μM
HeLa cells = settings: bleomycin 2 μM alone

Row | Molecule | Pol β strand displacement activity (DNA polymerase β (Pol β)) | cytotoxicity (HeLa cells)
1 | Cc1cn([C@H]2CC(NC(=O)c3cc(-c4ccc(Cl)cc4)oc3C(F)(F)F)[C@@H](COP(=O)(O)OCC3CC(O)OC3O)O2)c(=O)[nH]c1=O (some centres unmarked) [Compound 7] | Complete loss | 
2 | bleomycin |  | 22%
